Measurements reported in US8034928B2, “Fluorescence assays with improved sensitivity” (Wisconsin Alumni Research Foundation, priority 2003, dated 2011).

Tested on: HeLa cell extract

- stability of amide groups: stable
Substance: N,N-diacetylated rhodamine 110
